## scFv variants of Ab-14 (heavy chain) against a SARS-CoV-2 spike peptide

Binding partner: SARS-CoV-2 spike HR2 peptide, sequence PDVDLGDISGINAS.

Parent: Ab-14, a human scFv built as VH, a 15-residue (Gly4Ser)3 linker, VL. Only the CDRs of the heavy chain vary.
VH: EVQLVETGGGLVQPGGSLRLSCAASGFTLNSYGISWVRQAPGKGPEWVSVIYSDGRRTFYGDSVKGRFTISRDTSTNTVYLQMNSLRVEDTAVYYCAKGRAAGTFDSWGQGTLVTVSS
VL: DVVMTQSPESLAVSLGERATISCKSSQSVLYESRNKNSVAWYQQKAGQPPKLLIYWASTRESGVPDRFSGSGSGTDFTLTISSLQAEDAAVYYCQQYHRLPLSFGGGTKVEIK

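The variants were designed computationally from a first round of random CDR variants and then made and measured. Group labels follow the data file (Rand: our label for a block that the file lists under HC and that is probably the random mutants of the ten best first-round binders; En: ensemble of fine-tuned language models; HC: hill climbing; Gen: genetic algorithm; Gibbs: Gibbs sampling; a sequence that several methods proposed may carry one label only). The scFvs were displayed on barcoded MATa yeast, the peptide on MATalpha yeast. Pairs that bind mate more often; barcode pairs of the diploids are counted by sequencing. Scores were corrected for input abundance and mapped to Kd with protein pairs of known affinity run in the same pool. There are six technical replicates.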

Variants are written as CDR1, CDR2 and CDR3 of the heavy chain (limits as in the source). Parent: GFTLNSYGIS, VIYSDGRRTFYGDSVK, GRAAGTFDS.
This list holds designs with more than six substitutions.
Each Kd is an estimate from the mating assay, the geometric mean of the replicates in which the pair was seen; lower is stronger.
A pair that was not seen in any replicate is written "nd"; this usually means weak binding, but a binder can also be missed.

For GFNIQDYGIS, VIYADGSRTAYAEPVK, GNIGGTIDT [En_Gibbs], the assay gave nd (0 of 6 replicates).
For GFDLNEYGIS, VIYADGMRTAYADSVK, GENAGTFVI [En_Gen], the assay gave 140 nM (1 of 6 replicates).
For GFDLDEYGIS, VIYADGMRTAYVDDVK, GNVAGTFDV [En_Gen], the assay gave 510 pM (6 of 6 replicates).
For GFDLNEYGIS, VIYADGRRTSYADSVK, GNVAGTFDV [En_Gen], the assay gave 540 pM (6 of 6 replicates).
For GFDLNEYGIS, VIYADGMRTAYQDSVK, GENAGTFDV [En_Gen], the assay gave 440 pM (6 of 6 replicates).
For GFDLNEYGIS, VIYADGRRTAYANSVK, GEVAGTFDV [En_Gen], the assay gave 880 pM (6 of 6 replicates).
For GFDLDEYGIS, VIYADGMRTAYADDVK, GNEAGTFDV [En_Gen], the assay gave 3.9 nM (6 of 6 replicates).
For GFDLNEYGIS, VIYADGSRTAYSDSVK, GNVAGTFDI [En_Gen], the assay gave 1.3 nM (6 of 6 replicates).
For GFGLDEYGIS, VIYADGRRTFYADSVK, GENAGTFTM [En_HC], the assay gave 1.5 nM (6 of 6 replicates).
For GFDLDEYGIS, VIYADGRRTFYQDSVK, GNVAGTFDA [En_HC], the assay gave 90 pM (6 of 6 replicates).
For GFDLEDYGIS, VIYADGMRTAYSDSVK, GETAGTFDL [En_Gen], the assay gave 640 pM (6 of 6 replicates).
For GFDLEDYGIS, VIYADGMRTAYADSVK, GTNAGTFDV [En_Gen], the assay gave 410 pM (6 of 6 replicates).
For GFDINEMGIS, VIYADGQRLFYAQEVK, GENTGTFDM [En_Gibbs], the assay gave nd (0 of 6 replicates).
For GFDLDEYGIS, VIYADGKRTAYADDVK, GEVAGTFDL [En_Gen], the assay gave 110 pM (6 of 6 replicates).
For GFDLNEYGIS, VIYADGMRTAYSDSVK, GSNAGTFDM [En_Gen], the assay gave 1.7 nM (6 of 6 replicates).
For GFDLDEYGIS, VIYADGVRTAYSDSVK, GENAGTFDL [En_Gen], the assay gave 1.4 nM (6 of 6 replicates).
For GFDLNEYGIS, VIYADGRRTYYIDSVK, GTNAGTFDS [En_HC], the assay gave 640 pM (6 of 6 replicates).
For GFDLDEYGIS, VIYADGMRTAYTDSVK, GNVAGTFDM [En_Gen], the assay gave 500 pM (6 of 6 replicates).
For GFDLDEYGIS, VIYADGMRTAYSDNVK, GEVAGTFDT [En_Gen], the assay gave 640 pM (6 of 6 replicates).
For GFDLNEYGIS, VIYADGRRTAYVDSVK, GQVAGTFDS [En_HC], the assay gave 230 pM (6 of 6 replicates).
For GFNLNEPGIS, VIYSDGRRTFYTDSIK, GRFAGCFDS [Rand], the assay gave nd (0 of 6 replicates).
For GFDLDEYGIS, VIYADGKRTAYADDVK, GENAGTFDV [En_Gen], the assay gave 670 pM (6 of 6 replicates).
For GFDLNEYGIS, VIYADGMRKAYADSVK, GNVAGTFDM [En_Gen], the assay gave 280 pM (6 of 6 replicates).
For GFDLDEYGIS, VIYADGQRTAYADSVK, GEVAGTFDM [En_Gen], the assay gave 640 pM (6 of 6 replicates).
For GFDLNEYGIS, VIYADGRRTFYSDDVK, GNVGGTFDI [En_HC], the assay gave 830 pM (6 of 6 replicates).
For GFDLNEYGIS, VIYADGKRTFYADSVK, GNVAGTFDL [En_Gen], the assay gave 240 pM (6 of 6 replicates).
For GFALTEYGIS, VIYADGRRTAYSQSVK, GLNGGIIVV [En_Gibbs], the assay gave nd (0 of 6 replicates).
For GFDLNEYGIS, VIYADGQRTAYADSVK, GETAGTFDV [En_Gen], the assay gave 540 pM (6 of 6 replicates).
For GFDLNEYGIS, VIYADGVRTAYVDSVK, GNQAGTFDL [En_Gen], the assay gave 900 pM (6 of 6 replicates).
For GFDLNEYGIS, VIYADGSRTAYADSVK, GENAGTFDI [En_Gen], the assay gave nd (0 of 6 replicates).
For GYDLEEYGIS, VIYADGRRASYIENVK, DGVNDGVFV [En_Gibbs], the assay gave nd (0 of 6 replicates).
For GFNLEEYGIS, VIYADGKRQQYSENVK, GHKGNVRTV [En_Gibbs], the assay gave nd (0 of 6 replicates).
For GFNLDEYGIS, VIYADGRRTFYSDSVK, GEVAGTFDV [En_HC], the assay gave 110 pM (6 of 6 replicates).
For GFDIDEYGIS, VIYADGQRTAYKPKVK, GNNTGLVFI [En_Gibbs], the assay gave nd (0 of 6 replicates).
For GFDLNEYGIS, VIYADGVRTSYADSVK, GEVAGTFDI [En_Gen], the assay gave 510 pM (6 of 6 replicates).
For GFDFQEYGIS, VIYADGKRTAYANSVK, GGSNALTTG [En_Gibbs], the assay gave nd (0 of 6 replicates).
For GFDLEEYGIS, VIYADGQRTAYADSVK, GNVAGTFDT [En_Gen], the assay gave 690 pM (6 of 6 replicates).
For GFDLNEYGIS, VIYADGRRTFYADSVK, GSNAGTFDQ [En_HC], the assay gave 400 pM (6 of 6 replicates).
For GFDLNEYGIS, VIYADGKRTVYADSVK, GENAGTFDI [En_Gen], the assay gave 610 pM (6 of 6 replicates).

Repeated from above, the 2 best binders with a signal in all replicates:

CDR-H1	CDR-H2	CDR-H3	group	Kd (apparent)	seen in
GFDLDEYGIS	VIYADGRRTFYQDSVK	GNVAGTFDA	En_HC	90 pM	6/6
GFDLDEYGIS	VIYADGKRTAYADDVK	GEVAGTFDL	En_Gen	110 pM	6/6

The parent sequence was in this pool as ten entries: three were never detected, three once, and four in most replicates, with averages from 2.2 nM to 240 nM.
Empty control strains, which show no peptide, gave a signal in 1% of pairings with all heavy chain designs; the median was 120 nM and 95% of these signals were weaker than 7.0 nM. No background was subtracted.
In the paper, a design with two or fewer of six values counts as a poor binder.
The range of this assay differs from that of the first round, and the authors advise against merging the two.

Data: MIT Lincoln Laboratory AlphaSeq set, Li et al. 2023, doi:10.1038/s41467-023-39022-2, as distributed in FLAb.